Test results from patent US20130184308A1, “ACTIVATED BLOOD COAGULATION FACTOR X (FXa) INHIBITOR” (DAIICHI SANKYO COMPANY, LIMITED, priority 2008, published 2013).

Chains of the proteins cited; added tags and fusions are not shown. Residues count along the entry.
UniProt P00742, 41-179 partner limits assumed: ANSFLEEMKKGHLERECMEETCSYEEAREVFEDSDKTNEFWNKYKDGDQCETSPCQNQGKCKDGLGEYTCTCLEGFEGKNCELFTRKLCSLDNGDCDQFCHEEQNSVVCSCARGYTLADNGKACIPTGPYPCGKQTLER
UniProt P00742, 235-488 limits assumed: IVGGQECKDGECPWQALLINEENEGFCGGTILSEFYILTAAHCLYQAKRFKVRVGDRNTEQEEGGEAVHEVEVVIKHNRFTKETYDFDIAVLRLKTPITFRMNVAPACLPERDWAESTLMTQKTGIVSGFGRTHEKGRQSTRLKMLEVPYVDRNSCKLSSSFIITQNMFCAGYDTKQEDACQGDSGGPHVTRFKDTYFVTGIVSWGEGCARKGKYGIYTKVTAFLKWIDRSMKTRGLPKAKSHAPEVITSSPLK

How the values were obtained:
[1] = test system: bleeding events; settings: logistic regression analysis; NVAF patients
Description: Moreover, secondary evaluations were performed for efficacy by the comparison of the incidence of thromboembolic events, pharmacodynamic indexes, and biomarkers, and for safety by the comparison of the incidences of adverse events and adverse reactions. […] In the group to which warfarin was administered, 0.5-mg and 1-mg warfarin tablets were used and orally administered once a day for 12 weeks as a rule at a dose that allowed PT-INR to be controlled to between 2.0 and 3.0 inclusive (for 70-year-old or older participants, between 1.6 and 2.6 inclusive).
The clinical trial was carried out by, after obtaining the consent of test subjects, conducting head diagnostic imaging before registration to confirm no bleeding observation, and conducting head diagnostic imaging (CT or MRI), transthoracic echocardiography, lead electrocardiography, blood pressure examination, pulse rate examination, and hematological/biochemical tests.
In the secondary analysis, the hypothesis (comparison) shown below was studied on the incidence of bleeding events using the one-sided Cochran-Armitage test at the 0.025 level of significance. […]

[2] = test system: bleeding events; settings: total knee arthroplasty patients
Excerpt: The implementation of this clinical trial conformed to the ethical research guidelines of the Declaration of Helsinki and secured the maximal human rights, welfare, and safety of the test subjects.

[3] = target: activated blood coagulation factor X (FXa) (Homo sapiens, UniProt P00742); settings: background statement with reference to Patent Literature 1 to 4; cited from earlier work

| Compound | odds ratio BW≦60 kg/BW>60 kg of incidence of bleeding events, (A) major and clinically relevant non-major bleeding [1] | odds ratio BW≦60 kg/BW>60 kg of incidence of bleeding events, (B) major, clinically relevant non-major and minor bleeding [1] | liver functions (serum biochemistry test) compared with placebo group [2] | inhibitory effect on activated blood coagulation factor X (FXa) [3] |
| --- | --- | --- | --- | --- |
| CN1CCc2nc(C(=O)N[C@@H]3C[C@@H](C(=O)N(C)C)CC[C@@H]3NC(=O)C(=O)Nc3ccc(Cl)cn3)sc2C1.Cc1ccc(S(=O)(=O)O)cc1 [compound (1a), N^1-(5-chloropyridin-2-yl)-N^2-((1S,2R,4S)-4-[(dimethylamino)carbonyl]-2-{[(5-methyl-4,5,6,7-tetrahydrothiazolo[5,4-c]pyridin-2-yl)carbonyl]amino}cyclohexyl)ethanediamide p-toluenesulfonate monohydrate] | 3.338 | 1.779 | no difference in liver functions |  |
| CN1CCc2nc(C(=O)N[C@@H]3C[C@@H](C(=O)N(C)C)CC[C@@H]3NC(=O)C(=O)Nc3ccc(Cl)cn3)sc2C1 [formula (I), N^1-(5-chloropyridin-2-yl)-N^2-((1S,2R,4S)-4-[(dimethylamino)carbonyl]-2-{[(5-methyl-4,5,6,7-tetrahydrothiazolo[5,4-c]pyridin-2-yl)carbonyl]amino}cyclohexyl)ethanediamide] |  |  |  | strong inhibitory effect |
